This data set concerns Pseudomonas aeruginosa PAO1 MB9798 (efflux+, IMP-1). To be noted: ratio MITC95 PA 9798/MITC95 PA 9799; imipenem at 2 μg/mL.

As for `Nc1nc2c(-c3ccc(S(=O)(=O)N[C@H]4C[C@H](N)C4)c(S(N)(=O)=O)c3-c3nnn[nH]3)cccc2s1` [Example 71, 4-(2-amino-1,3-benzothiazol-4-yl)-N^1-(trans-3-aminocyclobutyl)-3-(1H-tetrazol-5-yl)benzene-1,2-disulfonamide], the Efflux ratio was determined as 1.00.

The record behind these values is patent US10544130B2, “Metallo-beta-lactamase inhibitors” (priority 2015, dated 2020).
